# Reference: PubChem BioAssay AID720646 (Broad Institute, 2013)
# Sequences of proteins named here, by UniProt entry; tags and fusion partners are left off. A change or cut given only in a name is not applied to a line headed by its entry.
# UniProt Q9HCT0: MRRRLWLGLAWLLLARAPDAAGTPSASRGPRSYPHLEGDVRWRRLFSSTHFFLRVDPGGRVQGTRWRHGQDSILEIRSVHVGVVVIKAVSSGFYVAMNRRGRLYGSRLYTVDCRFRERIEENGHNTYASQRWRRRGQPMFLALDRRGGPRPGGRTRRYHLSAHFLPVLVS
# Target: Fibroblast growth factor 22 (Homo sapiens) (UniProt Q9HCT0)
# Experiment: binders of human FGF22 protein, dose response, FGF22 synaptogenesis inhibitor project, biophysical, thermal shift, cherry-pick retest (AID 720646)
# Conditions: recombinant FGF22 thermal shift, SYPRO orange fluorescence
structure (smiles),measurement,value
Cc1ccc(S(=O)(=O)N(CCCN)CCCc2c(C)nc(N)[nH]c2=O)cc1,AC,35.2 µM
